Reference: patent US8158579B2, “Fusion protein of an exendin to modified transferrin” (BioRexis Pharmaceutical Corporation, priority 2006, dated 2012)

Target: T1, rat GLP-1 receptor (Rattus norvegicus, UniProt P32301)
T1 construct: expressed in transfected cells; host or cells: CHO (CHO-GLP-1R)
T1 sequence (P32301 22-463): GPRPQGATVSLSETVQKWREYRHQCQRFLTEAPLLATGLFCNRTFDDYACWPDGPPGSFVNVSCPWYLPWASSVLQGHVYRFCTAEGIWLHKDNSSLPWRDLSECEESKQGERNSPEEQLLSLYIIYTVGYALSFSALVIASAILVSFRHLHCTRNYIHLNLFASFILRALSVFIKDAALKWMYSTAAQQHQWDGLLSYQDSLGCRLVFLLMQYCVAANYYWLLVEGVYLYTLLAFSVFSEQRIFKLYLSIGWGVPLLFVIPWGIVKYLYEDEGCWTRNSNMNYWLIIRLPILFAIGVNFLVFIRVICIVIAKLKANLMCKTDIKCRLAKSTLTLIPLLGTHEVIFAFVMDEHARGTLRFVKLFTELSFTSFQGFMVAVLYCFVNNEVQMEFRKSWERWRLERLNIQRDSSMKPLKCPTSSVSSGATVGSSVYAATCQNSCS
Assay: cAMP potency assay in CHO cells transfected with the rat GLP-1 receptor (CHO-GLP-1R)
Format: cell-based
Conditions: cAMP accumulation in CHO-GLP-1R cells
Protocol: Potency was calculated from the measured response of cAMP produced as a result of GLP-1 receptor-mediated ligand binding in CHO cells transfected with the rat GLP-1 receptor (CHO-GLP-1R) following incubation with samples. 96-well tissue culture plates were seeded with CHO-GLP-1R cells and cultured overnight. The following day, the cells were rinsed with Krebs-Ringer buffer (KRB) and incubated in KRB containing the phosphodiesterase inhibitor 3-isobutyl-1-methylxanthine (IBMX, 2 mM) to inhibit intracellular enzymes that process cAMP. Serial dilutions of test compounds and controls were prepared in KRB/IBMX and triplicate wells of cells were inoculated with samples and controls. After incubation, individual sample lysates were then assayed to measure the increase in intracellular cAMP levels using a competition-based fluorescent immunoassay (CatchPoint® cAMP Fluorescent Assay Kit, Molecular Devices Corp., Sunnyvale, Calif.). The amount of cAMP accumulation in cells after GLP-1 receptor-mediated ligand binding is used to determine bioactivity and relative potency.

EC50: 1.3 nM
Substance: GLP-1(7-37,A8G,K34A) (PEAPTD)2 (SEQ ID NO: 5) mTf fusion protein: GLP-1(7-37) with A8G, K34A fused via (PEAPTD)2 linker to modified transferrin mTf; comparator fusion protein (PEAPTDPEAPTD; chains of the parent or of the whole protein) [reference compound]
